Test system: lipid processing in zebrafish larvae
Assay: Atorvastatin effect on fluorescent lipid processing (gall bladder labeling) in zebrafish larvae
Assay type: in vivo, Danio rerio
Settings: for PED6 labeling of the gall bladder (processing of PED6): zebrafish larvae bathed in PED6 (0.6 μM) with atorvastatin (Lipitor tablet suspension containing 1 mg/ml)

CC(C)c1c(C(=O)Nc2ccccc2)c(-c2ccccc2)c(-c2ccc(F)cc2)n1CC[C@@H](O)C[C@@H](O)CC(=O)O [atorvastatin]
effect of exogenous bile on atorvastatin block of PED6 gall bladder labeling (tilapia bile extract added to EM (20 μl/ml)): reversed this effect | PED6 labeling of the gall bladder (processing of PED6): completely blocked | PED6 labeling of the gall bladder (processing of PED6) (listed as Atorvastatin): inhibits processing of PED6

Reference: patent publication US8124056B2, “High throughput genetic screening of lipid and cholesterol processing using fluorescent compounds” (Trustees of the University of Pennsylvania, priority 2000, dated 2012)
